{"sequences": {"note": "Chains of the proteins cited; added tags and fusions are not shown.", "UniProt Q13547, whole entry, species assumed": "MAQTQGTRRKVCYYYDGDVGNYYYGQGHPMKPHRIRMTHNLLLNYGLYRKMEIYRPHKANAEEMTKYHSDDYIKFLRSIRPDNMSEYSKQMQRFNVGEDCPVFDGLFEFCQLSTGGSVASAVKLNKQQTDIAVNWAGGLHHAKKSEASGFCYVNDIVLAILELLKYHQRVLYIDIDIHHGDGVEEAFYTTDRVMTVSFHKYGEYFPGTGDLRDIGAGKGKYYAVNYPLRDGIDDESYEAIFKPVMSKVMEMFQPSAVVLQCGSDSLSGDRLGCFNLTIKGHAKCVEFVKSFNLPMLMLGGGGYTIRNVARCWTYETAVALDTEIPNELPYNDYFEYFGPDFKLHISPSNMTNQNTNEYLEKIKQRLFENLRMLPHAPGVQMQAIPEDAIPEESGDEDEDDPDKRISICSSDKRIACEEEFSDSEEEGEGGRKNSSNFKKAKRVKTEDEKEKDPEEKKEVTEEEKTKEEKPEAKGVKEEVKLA"}, "source": "patent US11332716B2", "about": "“Methods and compositions for producing pancreatic beta cells” (The Regents of the University of California, priority 2015, dated 2022)", "origin": "cited, not measured here", "target": "HDAC1 (Homo sapiens, UniProt Q13547)", "settings": "cited from earlier work"}
{"substance": "4,5:8,9-Dianhydro-1,2,6,7,11-pentadeoxy-D-threo-D-ido-undeca-1,6-dienitol [Depudecin]", "values": [{"measurement": "IC50", "result": "~4.7", "unit": "µM"}]}
